Laboratory results from article PMC5058426 (Journal of porphyrins and phthalocyanines, 2016).

Target: EGFR extracellular domain (Homo sapiens, UniProt P00533)
Assay: SPR binding to immobilized EGFR
Conditions: SPR sensorgram, 400 to 500 s, 100 μM

LARLLT [Compound 7]
dissociation rate from EGFR: slower dissociation rates
